{"source": "PubChem BioAssay AID1964107", "about": "(National Center for Advancing Translational Sciences (NCATS), 2024)", "note": "Only a part is listed here, and it is no random draw. Results filed as inconclusive are left out. Calls of active or inactive are those of the source. Calls follow the shape of the full dose curve. % is scaled to controls: 0 for no effect and ±100 for the full control effect."}
{"molecular_target": "Polyprotein P1234 (Chikungunya virus (strain S27-African prototype)) (UniProt Q8JUX6)", "assay": "Primary qHTS for inhibitors of NSP2Pro chikungunya virus (CHIKV); also: nearly all actives have a fitted effect of over 60% in size", "conditions": "FRET peptide cleavage, fluorescence 1 h; at 24.9 µM (top of the series)"}
{"molecule": "CN(CCCl)CCCl", "activity change, negative = inhibition": "inactive: -15.1%"}
